Key:
Androgen receptor [1] = molecular target: T1, Androgen receptor (Homo sapiens, UniProt P10275); settings: pH 7.5
Androgen receptor [2] = molecular target: T1, Androgen receptor; settings: pH 7.5; remark: listed apart in the source

Sequences of proteins named here, by UniProt entry; tags and fusion partners are left off.
UniProt P10275, whole entry: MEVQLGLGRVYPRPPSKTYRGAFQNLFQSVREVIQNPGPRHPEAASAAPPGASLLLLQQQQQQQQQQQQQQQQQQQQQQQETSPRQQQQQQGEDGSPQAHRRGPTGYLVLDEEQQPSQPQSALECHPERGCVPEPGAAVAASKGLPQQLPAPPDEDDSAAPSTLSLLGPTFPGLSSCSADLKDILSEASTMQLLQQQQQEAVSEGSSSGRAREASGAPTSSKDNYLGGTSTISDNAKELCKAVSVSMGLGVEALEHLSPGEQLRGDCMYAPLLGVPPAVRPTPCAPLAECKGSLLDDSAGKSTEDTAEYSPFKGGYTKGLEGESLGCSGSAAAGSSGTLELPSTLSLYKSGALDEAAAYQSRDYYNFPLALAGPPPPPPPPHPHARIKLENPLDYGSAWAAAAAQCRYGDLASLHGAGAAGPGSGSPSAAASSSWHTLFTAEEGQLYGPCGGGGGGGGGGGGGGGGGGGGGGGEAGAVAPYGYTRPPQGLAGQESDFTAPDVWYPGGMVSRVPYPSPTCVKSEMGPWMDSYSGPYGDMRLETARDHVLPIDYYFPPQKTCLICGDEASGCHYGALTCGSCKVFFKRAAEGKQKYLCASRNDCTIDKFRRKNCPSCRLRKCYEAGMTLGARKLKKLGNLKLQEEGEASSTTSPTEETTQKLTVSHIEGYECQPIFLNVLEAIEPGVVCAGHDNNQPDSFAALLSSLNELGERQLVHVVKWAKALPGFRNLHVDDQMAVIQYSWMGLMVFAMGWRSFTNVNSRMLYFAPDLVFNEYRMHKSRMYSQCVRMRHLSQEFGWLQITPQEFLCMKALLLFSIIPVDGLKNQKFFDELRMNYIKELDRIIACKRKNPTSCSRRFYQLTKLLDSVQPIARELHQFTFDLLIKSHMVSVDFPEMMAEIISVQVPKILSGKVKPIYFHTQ

**Q.** For `C[C@](O)(CS(=O)(=O)c1ccc(F)cc1)C(=O)Nc1cncc(C(F)(F)F)c1`, which IC50 (Androgen receptor [1]) is on record?
**A.** 71.7 µM

**Q.** What about the IC50 (Androgen receptor [2]) of the same molecule?
**A.** 2530 nM

**Q.** How did the IC50 (Androgen receptor [1]) turn out when `C[C@](O)(CS(=O)(=O)c1ccc(F)cc1)C(=O)Nc1cc(C(F)(F)F)ccn1` was run?
**A.** 12.4 µM

**Q.** And the IC50 (Androgen receptor [2])?
**A.** 1550 nM
